Test: HPLC potency and stability of stored antibiotic solutions;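 note: stored antibiotic compositions assayed by HPLC for remaining potency, USP acceptance requires at least 90% of nominal concentration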
Conditions: Vancomycin alone, 5.0 % aqueous solution, stored in a dark place at room temperature

Measured: Stability result, % (HPLC potency)

Vancomycin
102%: Day 120 | Day 150 | Day 180

— patent publication US20230302032A1, “ANTIBACTERIAL COMPOSITIONS AND METHODS FOR FABRICATING THEREOF” (Harrow IP LLC, priority 2020, published 2023)
